# Literature values in publication PMC7955072 (Nature Communications, 2021).
# Test system: bacterial IleRSs
# Details: cited from earlier work
compound,measurement,value
"CCCC[C@@]1(OC(=O)CCC(=O)O)CC[C@]2(CC[C@H](C)[C@@H](C/C=C(C)/C=C/[C@H](O)[C@@H](C)/C=C/C(=O)O)O2)O[C@H]1/C=C/C(C)=C/C(=O)O [RM-A, reveromycin A]",inhibition of bacterial IleRSs,does not show significant inhibition
